The record followed here is article PMC7760315 (Biomolecules, 2020).

Sequences of proteins named here, by UniProt entry; tags and fusion partners are left off. Residues count along the entry.
UniProt O75311, 34-464: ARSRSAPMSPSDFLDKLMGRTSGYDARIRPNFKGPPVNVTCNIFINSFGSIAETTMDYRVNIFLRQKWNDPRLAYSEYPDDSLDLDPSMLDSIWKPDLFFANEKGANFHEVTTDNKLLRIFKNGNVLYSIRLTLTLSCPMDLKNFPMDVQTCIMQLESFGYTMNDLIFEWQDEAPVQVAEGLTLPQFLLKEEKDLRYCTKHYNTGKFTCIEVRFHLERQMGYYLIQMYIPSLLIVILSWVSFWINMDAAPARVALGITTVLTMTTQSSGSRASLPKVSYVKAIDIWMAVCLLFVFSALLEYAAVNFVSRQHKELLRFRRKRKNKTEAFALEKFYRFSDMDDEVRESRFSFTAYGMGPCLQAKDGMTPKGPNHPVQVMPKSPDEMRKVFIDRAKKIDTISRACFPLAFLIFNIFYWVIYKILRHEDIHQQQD
UniProt P48167, 23-497: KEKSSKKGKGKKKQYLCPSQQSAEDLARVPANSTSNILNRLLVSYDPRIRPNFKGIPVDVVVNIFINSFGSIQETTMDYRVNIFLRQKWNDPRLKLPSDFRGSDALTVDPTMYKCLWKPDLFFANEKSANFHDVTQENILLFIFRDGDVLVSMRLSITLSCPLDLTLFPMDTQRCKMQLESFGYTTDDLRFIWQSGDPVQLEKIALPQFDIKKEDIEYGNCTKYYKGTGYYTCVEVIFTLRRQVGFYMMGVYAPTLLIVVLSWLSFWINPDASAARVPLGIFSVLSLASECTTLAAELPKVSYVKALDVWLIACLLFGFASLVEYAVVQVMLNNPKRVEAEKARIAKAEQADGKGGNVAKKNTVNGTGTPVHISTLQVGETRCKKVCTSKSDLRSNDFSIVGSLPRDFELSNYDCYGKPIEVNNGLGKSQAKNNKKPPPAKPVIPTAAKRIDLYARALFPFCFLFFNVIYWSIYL

The term EC50 denotes the concentration at which the effect is half-maximal.

The target of this assay is GlyRα3β (Homo sapiens, UniProt O75311+P48167). Particulars: read-out: Fast-Flow Glycine EC50. From the text: Human GlyT1b and GlyT2a WT cDNA were subcloned into the plasmid oocyte transcription vector (pOTV) and human GlyRα1, GlyRα3 and GlyRβ into pGEMHE. GlyR cDNA pGEMHE vectors were provided by Mary Collins at the University of Sydney (Sydney, Australia). Single point mutations were introduced into GlyRα1 using the Q5 site-directed mutagenesis kit (New England Biolabs (Genesearch), Arundel, Australia) with oligonucleotide primers (Merck, Sydney, Australia) containing the desired mutations. The amplified cDNA/pOTV or cDNA/pGEMHE product was then transformed in E. coli cells, and subsequently purified using the PureLink Quick Plasmid Miniprep Kit (Invitrogen by Life Technologies, Löhne, Germany), and sequenced by the Australian Genome Research Facility (Sydney, Australia). […]
GlyT1, GlyT2, GlyRα1, GlyRα3, GlyRα1β and GlyRα3β are electrogenic, allowing activation to be measured via the two-electrode voltage clamp technique. Oocytes were voltage clamped at −60 mV, and whole-cell currents generated by the substrate were recorded with a Geneclamp 500 amplifier (Axon Instruments, Foster City, CA, USA), digitised by a Powerlab 2/20 chart recorder (ADInstruments, Sydney, Australia). […]

Structures are written as SMILES.

In the case of `NCC(=O)O` [glycine], the EC50 turned out to be 109 µM.
